According to paper PMC2801547 (Journal of medicinal chemistry, 2009):

Columns and labels:
[1] = for stability in DMSO: two weeks at 22°C
[2] = NOD/SCID mice
[3] = tested on: JeKo-1 mantle cell lymphoma tumors; details: mouse, in vivo
[4] = tested on: mRNA splicing activity of a HeLa nuclear extract
[5] = tested on: SC35 and SAP155 in HeLa cervical carcinoma cells; details: 10 µM, 4 hours

| Compound | stability in DMSO [1] | stability in dilute aqueous acid [1] | solubility in water or aqueous buffer (water or aqueous buffer) | blood chemistries (diagnostic chemistry panel) ([2]; 5-50 mg/kg daily for five days, IV and IP, day 5) | organ histologies at total necropsy ([2]; MTD study treatment groups) | fatalities or weight loss in efficacy study [3] | tumor volumes compared to vehicle-treated mice [3] | inhibition of mRNA splicing in cell-free extract [4] | solubility relative to cyclohexane derivative 5 (in PBS) [fold] | localization of splicing factors SC35 and SAP155 [5] |
| --- | --- | --- | --- | --- | --- | --- | --- | --- | --- | --- |
| CC(=O)O[C@@H](C)/C=C\C(=O)N[C@H]1CC[C@@H](C/C=C(C)/C=C/[C@@H]2C[C@]3(CO3)CC(C)(C)O2)CC1 [compound 3a] | no detectable decomposition | rapidly degraded | – | – | – | – | – | – | – | – |
| CC(/C=C/[C@@H]1C[C@]2(CO2)CC(C)(C)O1)=C\C[C@H]1CC[C@@H](NC(=O)/C=C\[C@H](C)OC(=O)C(C)C)CC1 [compound 5, (S,Z)-5-((1R,4R)-4-((2E,4E)-5-((3R,5S)-7,7-dimethyl-1,6-dioxaspiro[2.5]octan-5-yl)-3-methylpenta-2,4-dienyl)cyclohexylamino)-5-oxopent-3-en-2-yl isobutyrate] | no detectable decomposition | rapidly degraded | limited solubility | no abnormalities of the blood chemistries | no evidence for significant toxicities | No fatalities or significant weight loss | statistically significant decreases in tumor volumes | inhibit the mRNA splicing activity of a HeLa nuclear extract | – | – |
| CC(/C=C/[C@@H]1C[C@]2(CO2)CC(C)(C)O1)=C\C[C@H]1OC[C@@H](NC(=O)/C=C\[C@H](C)OC(=O)C(C)C)CO1 [compound 26, (S,Z)-5-((2R,5R)-2-((2E,4E)-5-((3R,5S)-7,7-dimethyl-1,6-dioxaspiro[2.5]octan-5-yl)-3-methylpenta-2,4-dienyl)-1,3-dioxan-5-ylamino)-5-oxopent-3-en-2-yl isobutyrate] | – | – | – | – | – | – | – | – | > 50 | caused the splicing factors to form large aggregates |
